From PubChem BioAssay (NCI) come the findings set out here.

This is a selection; strong and weak results do not stand in their true shares.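 Assay: single dose, 48 h. Readout: percent growth (0 = no net growth; negative = cell death). Active: <10.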 The source made the active and inactive calls.

Test systems include NCI-H23 lung; NCI-H226 lung; NCI-H322M lung; HOP-62 NSCLC; NCI-H460 lung; NCI-H522 lung; A549/ATCC NSCLC; 786-0 renal; DU-145 prostate; K-562 leukemia; MALME-3M melanoma; MDA-MB-231 breast; RXF 393 renal; SF-268 CNS; SF-295 CNS; SF-539 CNS; UACC-257 melanoma; M14 melanoma; HOP-92 NSCLC; COLO 205 colon.
Assay in all cases: NCI-60 one-dose screen, 48 h (100 = growth as untreated, 0 = no growth, -100 = all killed)
Settings in all cases: 10 µM

As for `CCOC(=O)N1CCC(=O)CC1`, the growth with NCI-H23 lung is inactive: 97.4%; with NCI-H226 lung, inactive: 94.9%; in the assay on NCI-H322M lung it was inactive: 93.7%; with HOP-62 NSCLC, inactive: 101%; in the assay with NCI-H460 lung it was inactive: 104%; with NCI-H522 lung it was inactive: 87.7%. In addition, the growth in the assay on A549/ATCC NSCLC was inactive: 96.6%; with 786-0 renal it was inactive: 96.8%; in the assay on DU-145 prostate, inactive: 106%; in the assay on K-562 leukemia it was inactive: 97.6%; in the assay with MALME-3M melanoma it was inactive: 107%; in the assay on MDA-MB-231 breast, inactive: 107%. In addition, the growth in the assay on RXF 393 renal was inactive: 100%; in the assay on SF-268 CNS, inactive: 103%; with SF-295 CNS, inactive: 96.8%; in the assay with SF-539 CNS, inactive: 98.2%; in the assay with UACC-257 melanoma, inactive: 92.1%; in the assay on M14 melanoma, inactive: 109%.
As to `Cc1ccccc1CN(CCCl)CCCl`, the growth was inactive: 94.2% with NCI-H23 lung; inactive: 81.2% in the assay on NCI-H226 lung; inactive: 102% in the assay with NCI-H322M lung; inactive: 97.3% in the assay with NCI-H460 lung; inactive: 87% in the assay on HOP-92 NSCLC; inactive: 69% in the assay on NCI-H522 lung. Besides, the growth in the assay with A549/ATCC NSCLC was inactive: 97.6%; in the assay with 786-0 renal it was inactive: 108%; with COLO 205 colon it was inactive: 101%; in the assay on DU-145 prostate, inactive: 107%; in the assay on MALME-3M melanoma, inactive: 104%; with MDA-MB-231 breast it was inactive: 119%. For the same compound, the growth in the assay on RXF 393 renal is inactive: 98.8%; in the assay with SF-295 CNS, inactive: 111%; in the assay with SF-539 CNS it was inactive: 102%; in the assay on UACC-257 melanoma it was inactive: 95.4%; with M14 melanoma it was inactive: 95.1%.
Consider `Cc1cccc(CN(CCCl)CCCl)c1`, for which the growth in the assay on NCI-H23 lung is inactive: 89.5%; in the assay on NCI-H226 lung it was inactive: 92.6%; in the assay with NCI-H322M lung, inactive: 96.1%; in the assay with HOP-92 NSCLC, inactive: 80.5%; with NCI-H522 lung, inactive: 63.2%; with A549/ATCC NSCLC, inactive: 94.2%. Also, the growth is inactive: 99.6% with 786-0 renal; inactive: 88.4% with COLO 205 colon; inactive: 102% in the assay on DU-145 prostate; inactive: 96.2% with K-562 leukemia; inactive: 89.8% with MALME-3M melanoma; inactive: 105% in the assay with MDA-MB-231 breast. Further, the growth in the assay on RXF 393 renal was inactive: 97.4%; in the assay with SF-295 CNS it was inactive: 98.5%; in the assay with SF-539 CNS, inactive: 83.5%; with UACC-257 melanoma it was inactive: 90.2%; in the assay on M14 melanoma, inactive: 91.8%.
For `BrCCN(CCBr)CCCN(CCBr)CCBr`, the growth is inactive: 100% in the assay with NCI-H226 lung; inactive: 98.1% in the assay on HOP-62 NSCLC; inactive: 106% in the assay on NCI-H460 lung; inactive: 94.3% with HOP-92 NSCLC; inactive: 74.4% in the assay with NCI-H522 lung; inactive: 102% in the assay on A549/ATCC NSCLC. In addition, the growth is inactive: 101% with 786-0 renal; inactive: 102% with COLO 205 colon; inactive: 106% in the assay with DU-145 prostate; inactive: 103% with K-562 leukemia; inactive: 93.3% in the assay on MALME-3M melanoma; inactive: 115% in the assay with MDA-MB-231 breast. The growth with RXF 393 renal was inactive: 105%; in the assay on SF-268 CNS, inactive: 94.2%; in the assay with SF-295 CNS, inactive: 96.9%; in the assay with SF-539 CNS it was inactive: 104%; with UACC-257 melanoma, inactive: 94.8%; in the assay on M14 melanoma it was inactive: 97.2%.
Take `CC(C)NP(=O)(F)NC(C)C`: the growth in the assay with NCI-H23 lung was inactive: 94%; in the assay on NCI-H226 lung, inactive: 101%; in the assay on NCI-H322M lung, inactive: 90.3%; with NCI-H460 lung, inactive: 107%; in the assay on HOP-92 NSCLC, inactive: 93.9%; with NCI-H522 lung, inactive: 108%. For the same compound, the growth in the assay on A549/ATCC NSCLC was inactive: 97.3%; with 786-0 renal it was inactive: 107%; with COLO 205 colon, inactive: 105%; in the assay on DU-145 prostate, inactive: 105%; with K-562 leukemia, inactive: 97.7%; in the assay with MALME-3M melanoma, inactive: 92.9%. For the same compound, the growth was inactive: 112% with MDA-MB-231 breast; inactive: 113% in the assay with RXF 393 renal; inactive: 96.3% in the assay with SF-268 CNS; inactive: 102% in the assay on SF-295 CNS; inactive: 104% in the assay with SF-539 CNS; inactive: 98.8% in the assay on UACC-257 melanoma. Moreover, the growth with M14 melanoma was inactive: 112%.
For `[O-][n+]1onc(-c2ncon2)c1-c1ncon1`, the growth with NCI-H23 lung is inactive: 96.2%; in the assay with NCI-H322M lung it was inactive: 99.9%; in the assay on HOP-62 NSCLC, inactive: 107%; in the assay with NCI-H460 lung, inactive: 109%; in the assay on HOP-92 NSCLC, inactive: 101%; in the assay on NCI-H522 lung it was active: -74.2%. Besides, the growth was inactive: 104% with A549/ATCC NSCLC; inactive: 97.7% in the assay on 786-0 renal; active: -24.4% with COLO 205 colon; inactive: 97.8% in the assay on DU-145 prostate; inactive: 33.8% with K-562 leukemia; active: -46.4% in the assay on MALME-3M melanoma. In addition, the growth was inactive: 112% in the assay on MDA-MB-231 breast; inactive: 86.2% with RXF 393 renal; inactive: 93.8% with SF-268 CNS; inactive: 98.2% with SF-295 CNS; inactive: 109% in the assay with SF-539 CNS; inactive: 100% in the assay with UACC-257 melanoma. The growth in the assay on M14 melanoma was inactive: 86.3%.
For `Oc1ccc(O)c(CN(CCCl)CCCl)c1`, the growth with NCI-H23 lung was inactive: 105%; in the assay with NCI-H226 lung it was inactive: 96%; in the assay with NCI-H322M lung it was inactive: 99.3%; in the assay with HOP-62 NSCLC it was inactive: 96.9%; in the assay on NCI-H460 lung, inactive: 102%; in the assay with A549/ATCC NSCLC it was inactive: 104%. The growth in the assay on 786-0 renal was inactive: 117%; with COLO 205 colon, inactive: 97.3%; in the assay with DU-145 prostate, inactive: 108%; in the assay on K-562 leukemia, inactive: 96.4%; with MALME-3M melanoma, inactive: 94.5%; with MDA-MB-231 breast, inactive: 98.6%. Also, the growth is inactive: 114% in the assay with RXF 393 renal; inactive: 94.5% in the assay with SF-268 CNS; inactive: 102% with SF-295 CNS; inactive: 94.2% in the assay on SF-539 CNS; inactive: 128% in the assay on UACC-257 melanoma; inactive: 103% in the assay on M14 melanoma.
Turning to `Cc1cccc(NC2(C#N)CCN(Cc3ccccc3)CC2)c1`, the growth was inactive: 108% with NCI-H23 lung; inactive: 107% in the assay on NCI-H226 lung; inactive: 103% with NCI-H322M lung; inactive: 101% in the assay with HOP-62 NSCLC; inactive: 111% with NCI-H460 lung; inactive: 90.3% in the assay with HOP-92 NSCLC. For the same compound, the growth in the assay with NCI-H522 lung is inactive: 114%; with A549/ATCC NSCLC, inactive: 98.3%; in the assay with 786-0 renal, inactive: 102%; in the assay on COLO 205 colon, inactive: 109%; in the assay with DU-145 prostate, inactive: 123%; in the assay with K-562 leukemia, inactive: 103%. In addition, the growth in the assay on MALME-3M melanoma was inactive: 110%; in the assay with MDA-MB-231 breast, inactive: 128%; in the assay on RXF 393 renal, inactive: 121%; with SF-295 CNS it was inactive: 102%; in the assay with SF-539 CNS, inactive: 97.6%; in the assay on UACC-257 melanoma, inactive: 110%. In the assay on M14 melanoma, the growth was inactive: 95.1%.
As to `Cc1ccccc1NC1(C#N)CCN(Cc2ccccc2)CC1`, the growth in the assay with NCI-H23 lung is inactive: 104%; in the assay with NCI-H226 lung it was inactive: 112%; in the assay on NCI-H322M lung it was inactive: 95.5%; in the assay on HOP-62 NSCLC it was inactive: 106%; with NCI-H460 lung, inactive: 106%; with HOP-92 NSCLC it was inactive: 75.2%. Moreover, the growth with NCI-H522 lung was inactive: 108%; in the assay with A549/ATCC NSCLC, inactive: 97.3%; in the assay on 786-0 renal, inactive: 102%; with COLO 205 colon it was inactive: 112%; with DU-145 prostate, inactive: 118%; with MALME-3M melanoma, inactive: 107%. The growth is inactive: 117% with MDA-MB-231 breast; inactive: 122% in the assay on RXF 393 renal; inactive: 105% with SF-295 CNS; inactive: 96.8% with SF-539 CNS; inactive: 112% in the assay with UACC-257 melanoma; inactive: 105% in the assay on M14 melanoma.
